## Binding of CDR-mutated scFvs to a peptide of the spike HR2 region

Target: peptide PDVDLGDISGINAS, taken from heptad repeat 2 (HR2) of SARS-CoV-2 spike.

Parent: Ab-14, a human scFv built as VH, a 15-residue (Gly4Ser)3 linker, VL. Only the CDRs of the light chain vary.
VH: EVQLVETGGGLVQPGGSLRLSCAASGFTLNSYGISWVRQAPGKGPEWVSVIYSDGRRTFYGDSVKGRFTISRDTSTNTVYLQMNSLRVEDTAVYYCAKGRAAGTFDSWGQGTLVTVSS
VL: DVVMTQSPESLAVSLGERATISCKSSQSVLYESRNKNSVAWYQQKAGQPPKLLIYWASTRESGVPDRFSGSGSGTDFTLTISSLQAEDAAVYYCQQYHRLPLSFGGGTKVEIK

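Phage display of a naive human antibody library on the peptide gave the parent. Designed CDR sequences, proposed from the first random library and measured here. Group labels follow the data file (Ctrl: baseline library sampled from a position-specific scoring matrix, with some repeated check sequences; En: ensemble of fine-tuned language models; GP: Gaussian process model; HC: hill climbing; Gen: genetic algorithm; Gibbs: Gibbs sampling; a sequence that several methods proposed may carry one label only). Affinity was read by AlphaSeq, a pooled yeast mating assay with surface-displayed partners. Binding brings cells together so that they mate, and sequencing counts the barcode pairs among the diploids. The ratio of observed to expected reads was calibrated, replicate by replicate, on BCL2-family standards whose Kd was known from biolayer interferometry. Mating was done six times.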

Each variant is given by its three light chain CDRs, as the data file delimits them; those of the parent are KSSQSVLYESRNKNSVA, WASTRES, QQYHRLPLS.
Numbers give log10(Kd / nM), so 0 is 1 nM and 3 is 1 µM. Smaller is tighter.
A mean of the replicates is given; it leaves out those without a signal.
A pair that was not seen in any replicate is written "not detected"; this usually means weak binding, but a binder can also be missed.
Three control strains display no target. For all light chain designs, 4% of the pairings with them gave a signal, with a median of 2.64 and one signal in twenty below 1.59, so weak values seen in few replicates may be background.

CDR-L1 | CDR-L2 | CDR-L3 | group | mean log10 Kd (nM) | replicates with signal
MISQLWNMGTFAINSVA | QASIRNM | QQYDRLPLA | En_Gen | 1.63 | 4 of 6
KIEQSVLYEDRNINSVA | NASQRYS | QLYHRLPLS | GP_Gibbs | 1.80 | 5 of 6
KSSQSVLYETRNKNSVA | NASERED | QQYHRLPLL | Ctrl | 1.44 | 6 of 6
TISQVMNTLTRHGNNVA | DLAEREV | QQYFRLPLS | En_Gen | 0.50 | 6 of 6
KLRQSTLYESRNKNSVA | LASVRES | QQYHRLPLS | GP_HC | 1.06 | 6 of 6
KLSGATRLESGNKASVA | ENSTRGE | QQYFRLPLS | En_HC | 0.26 | 6 of 6
KCAQWVDYESRNKNSVA | QASTREQ | QQYHRLPLS | GP_Gibbs | -0.11 | 6 of 6
KSFQSELEEQRNDNSVA | SASTRLS | QQYHRLPLS | GP_Gibbs | 0.10 | 6 of 6
IVSQLMLWGHLAKNSIA | EAENRLN | QQYDRLPLF | En_Gen | 1.08 | 5 of 6
ISFQSVAYESRNKNSVA | WASTRES | QQYHRHPES | Ctrl | not detected | 0 of 6
KMSQSHLYESRNKNSVA | NASQRES | QQYHRLPLS | GP_Gen | -0.23 | 6 of 6
KSPGSNLYESRNWNSVA | KASTRLQ | QQYHRLPLS | GP_Gibbs | 1.87 | 6 of 6
KQSQSCLCESRNKNSVA | DASTRES | QQYHRLPLS | GP_HC | 0.47 | 6 of 6
KMSESWLYESQNSNNVA | HASQRMS | QQYHRLPLS | GP_Gibbs | 0.07 | 6 of 6
KFSQMANQFSVSMNAVA | EMSTRPE | QQYNRLPLS | En_Gen | 0.29 | 6 of 6
MLSDLNKMGVRNTQSVA | DNSTRGS | QQYDRLPLS | En_HC | 2.47 | 6 of 6
KLSQSWLYESRNKNSVA | QASQRES | QQYHRLPLS | GP_Gen | -0.33 | 6 of 6
KLGSATRFESSNKASIA | DNSTREA | QQYHRLPLS | En_HC | 0.10 | 6 of 6
KLQQADLYESRNKNSVA | QASTRSS | QCYHRLPLS | GP_Gibbs | 0.29 | 6 of 6
KLSQSDGYESRNKNSVA | EASTRES | QQYHRLPLS | GP_Gen | -0.26 | 6 of 6
KVSQSVLYQSRNKNSVA | NASTRES | QQYHRLPLS | GP_Gen | 0.05 | 6 of 6
KISISVLYESRNKNSVA | WASTRES | QQYHRLPLS | Ctrl | not detected | 0 of 6
KLSDSVLYESRNKNSVA | NASTRES | QQYHRLPLS | GP_HC | not detected | 0 of 6
QLGHYKHENMAKWQNIA | DMTIREK | QQYAHLPLA | En_Gibbs | 1.05 | 6 of 6
KLSQSVEYESRDKNAVA | DAQTRMS | QQYHRLPLS | GP_Gibbs | -0.25 | 6 of 6
HLGIQTQGEEVSTQAVA | QESTRAK | QQYFRLPLI | En_Gibbs | 0.55 | 6 of 6
MLSEMLHMLGAKKNSIA | DLVLRAN | QQYHRLPLM | En_Gen | not detected | 0 of 6
KSFQSVLYESRNKNSVA | WASTRES | QQYHRLPLS | Ctrl | 1.69 | 1 of 6
KSQGSQEYESRNKNSVA | HASTRED | QQYHRLPLS | GP_HC | -0.07 | 6 of 6
SVHFQGTTGEQNWESIA | ENSIRVE | QQYSHLPLL | En_Gibbs | 1.53 | 6 of 6
KLIQSVAMSSREKDSIA | DNSTREY | QQYHRLPLS | En_HC | 2.01 | 6 of 6

Continued, with the values leading:

mean log10 Kd (nM) | replicates with signal | CDR-L1 | CDR-L2 | CDR-L3 | group
0.93 | 6 of 6 | MFSQMLAIGHKVSNSVA | QASTRFN | QQYERLPLI | En_Gen
0.66 | 6 of 6 | MISQILNMGSFAINSVA | QASIRNE | QQYDRLPLM | En_Gen
-0.20 | 6 of 6 | KVYMSVDYEDRNKNSVA | HASVRES | QQYHRLPLS | GP_Gibbs
0.28 | 6 of 6 | ILYESVGTLSRNKHSVA | DNSTREK | QQYDRLPLS | En_HC
2.01 | 4 of 6 | HISQSVGMTSRNKNSVA | ENTTRED | QQYDRLPLS | En_HC
2.50 | 5 of 6 | KQSQSVLYENRNKNSVA | WASTRES | QQYHEWPLS | Ctrl
0.98 | 3 of 6 | MLLQSTMYGERQRNSVA | HASTRED | QQYHRLPLI | En_HC
1.21 | 6 of 6 | KFSQSVLYEPRTKNSVA | NASTRES | QWYHRLPLS | GP_HC
-0.28 | 6 of 6 | KLPQSVLYESRNKNSVA | SGSTRES | QQYHRLPLS | GP_Gen
-0.02 | 6 of 6 | KLDQQTLYETRNKNSVA | WASTREE | QQYHRLPLS | GP_HC
-0.43 | 6 of 6 | KLSQSVLMESRNSNSVA | EASTRES | QQYHRLPLS | GP_Gen
0.62 | 6 of 6 | KLSMITGHMSMSRENVA | EMETREN | QQYDRLPLS | En_Gen
0.37 | 6 of 6 | KLSTSHLYESRMVNAVA | EASTRMD | QQYHRLPLS | GP_Gibbs
0.79 | 6 of 6 | NLGQKMSLETEQRNSIA | DSTVREY | QQYSRIPLI | En_Gibbs
0.70 | 4 of 6 | KSSQSVLYESINKNSVA | WASTRES | QQYHRLELS | Ctrl
2.01 | 1 of 6 | KSSQSVLYESRNKNSVA | WASTREL | MQYHEWPLS | Ctrl
1.27 | 6 of 6 | KMSQSVLDESRNKNSVA | WASTREN | QQYHRLPLS | Ctrl
0.63 | 6 of 6 | KIAGSMAMTSHHINSVA | QSTTREE | QQYNRLPLS | En_HC
0.61 | 6 of 6 | KLVESVLYESRNSNAVA | NASYREE | QQYHRLPLS | GP_Gibbs
1.38 | 6 of 6 | VLSDTIENQYDEADNIA | DATETSK | QQYARLPLS | En_Gibbs
1.07 | 6 of 6 | VMQMQNDRMQDAAKNIA | DVDMRET | QQYARLPFM | En_Gibbs
1.95 | 5 of 6 | MLSQMWAIGMKVSNSVA | QVSTRFE | QQYDRLPLE | En_Gen
2.23 | 5 of 6 | TITGMVEEIETTQKNIA | EGEFRCM | QQYSRLPLS | En_Gibbs
1.14 | 4 of 6 | SLSVFNLTDANKWDSVA | NSAATRI | QQYQRLPLS | En_Gibbs
0.55 | 6 of 6 | TISGVMTQMQHSKNNVA | EVSTRLD | QQYFRLPLE | En_Gen
0.41 | 6 of 6 | KLSQSVEYESRNKNSVA | EASTREY | QQYHRLPLA | GP_Gibbs
2.43 | 2 of 6 | KSSQSVLYESDNKNSVA | NASTRES | QQYHRLPLP | Ctrl
0.08 | 6 of 6 | HSSPSVHYESRNKNSVA | NASTRES | QQYHRLPLS | GP_HC
0.38 | 6 of 6 | NISYLQALSTNSVNNVA | QASVRAP | QYYQRLPLC | En_Gibbs
0.73 | 6 of 6 | KSSQSVLYEDRHKNSVA | GASTRES | QQYHRLPLS | Ctrl
0.16 | 6 of 6 | KLQQSEEYESRNKNSVA | NASTRES | QQYHRLPLS | GP_Gen

A selection of 7 entries from above:

CDR-L1 | CDR-L2 | CDR-L3 | group | mean log10 Kd (nM) | replicates with signal
KLPQSVLYESRNKNSVA | SGSTRES | QQYHRLPLS | GP_Gen | -0.28 | 6 of 6
KLDQQTLYETRNKNSVA | WASTREE | QQYHRLPLS | GP_HC | -0.02 | 6 of 6
QLGHYKHENMAKWQNIA | DMTIREK | QQYAHLPLA | En_Gibbs | 1.05 | 6 of 6
KSFQSELEEQRNDNSVA | SASTRLS | QQYHRLPLS | GP_Gibbs | 0.10 | 6 of 6
KSSQSVLYETRNKNSVA | NASERED | QQYHRLPLL | Ctrl | 1.44 | 6 of 6
KSSQSVLYESRNKNSVA | WASTREL | MQYHEWPLS | Ctrl | 2.01 | 1 of 6
NISYLQALSTNSVNNVA | QASVRAP | QYYQRLPLC | En_Gibbs | 0.38 | 6 of 6

Of ten entries with the parent sequence, four were seen in most replicates (averages 0.34 to 2.37), three in one and three in none, so single entries are noisy.
The authors averaged sequences with at least three values out of six and counted those with two or fewer as poor binders.
A sequence measured in both rounds can read differently, since the two assays cover different ranges.

Source: Li et al. 2023 (doi:10.1038/s41467-023-39022-2), MIT Lincoln Laboratory and A-Alpha Bio; data file from the FLAb repository.